Yeast mating assay 1: variants of the scFv Ab-14

The measurements come from Engelhart et al. 2022 (doi:10.1038/s41597-022-01779-4) through the FLAb antibody collection.

Antigen: PDVDLGDISGINAS, a 14-residue peptide of the SARS-CoV-2 spike HR2 region.

The variants keep the heavy chain, the linker and the frameworks of Ab-14 (scFv order VH, a 15-residue (Gly4Ser)3 linker, VL).
VH: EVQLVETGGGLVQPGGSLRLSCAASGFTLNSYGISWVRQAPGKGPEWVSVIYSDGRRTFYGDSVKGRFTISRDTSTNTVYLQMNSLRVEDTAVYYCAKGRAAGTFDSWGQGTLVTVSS
VL: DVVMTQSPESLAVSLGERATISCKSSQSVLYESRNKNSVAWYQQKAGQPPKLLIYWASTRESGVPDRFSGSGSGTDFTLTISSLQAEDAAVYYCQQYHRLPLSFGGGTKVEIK

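The starting antibody came from a phage panning campaign against this peptide. Variants in AAYL50 differ from the parent at up to three CDR positions; double and triple changes were sampled at random. The scFvs were displayed on barcoded MATa yeast, the peptide on MATalpha yeast. Pairs that bind mate more often; barcode pairs of the diploids are counted by sequencing. Scores were corrected for input abundance and mapped to Kd with protein pairs of known affinity run in the same pool. Mating was done three times.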

The parent's light chain CDRs are KSSQSVLYESRNKNSVA, WASTRES, QQYHRLPLS; each variant's own CDRs replace them letter for letter. Every variant below is changed at S25 of the VL (sequential numbering). Numbers give log10(Kd / nM), so 0 is 1 nM and 3 is 1 µM. Smaller is tighter. Averages over replicates are reported, and they cover detected replicates only. "n.d." marks a missing value. The strain was present, yet no cells mated with the target were sequenced in that replicate, which points to weak or no binding. As a blank, each scFv also met three strains without target: over library AAYL50, 18% of these pairings were detected, typically at 4.19 and seldom below 2.99. The control count says in how many pairings with the empty strains this scFv gave a signal, with their mean in brackets.

CDR-L1	CDR-L2	CDR-L3	replicates, log10 nM	mean, log10 nM	signal with controls
KYSQSVLYESRNKNSVA	WASTAES	QVYHRLPLS	n.d. n.d. n.d.	n.d.	0 of 9
SISQSVLYESRNKNSVA	KASTRES	QQYHRLPLS	-0.33 0.02 -0.26	-0.19	1 of 9 (4.41)
KVSQSVLYESRNKESVA	WASTRES	QQYHRLCLS	1.34 1.39 1.51	1.41	4 of 9 (4.56)
KHSQGVLYESRNKRSVA	WASTRES	QQYHRLPLS	1.50 1.70 1.66	1.62	1 of 9 (2.60)
KRSVSVLYESRNKNSVA	WASTRES	SQYHRLPLS	4.19 n.d. 3.50	3.85	6 of 9 (4.44)
KGSQSVLYESRNGGSVA	WASTRES	QQYHRLPLS	1.90 1.98 1.76	1.88	2 of 9 (4.54)
KHSQSVLYESRNKNSVA	WADTKES	QQYHRLPLS	2.43 2.18 2.63	2.41	2 of 9 (4.16)
KMSQSVLCESRNKNSVA	WASTRES	HQYHRLPLS	1.00 1.12 1.30	1.14	0 of 9
KISQQVLKESRNKNSVA	WASTRES	QQYHRLPLS	-0.09 0.19 -0.06	0.01	1 of 9 (4.60)
KYSQSVLYESRMKNSVA	WASTRES	QQYHRLPYS	2.97 n.d. n.d.	2.97	0 of 9
KKSQSVLYESRNKFSVA	WASTRES	QQLHRLPLS	3.15 n.d. n.d.	3.15	3 of 9 (3.79)
KFSQSVLYESRCKNSVA	WASTLES	QQYHRLPLS	1.20 1.13 1.15	1.16	3 of 9 (4.24)
KFSQSVLYESRNKNSVA	WASTRES	QQYHGLPLG	1.88 1.97 2.03	1.96	1 of 9 (5.65)
KNSQSVLYESRNKNSVA	WASTRES	QQYHRLPLS	1.36 1.57 1.68	1.54	3 of 9 (4.05)
KESQSVLYESRNKNSPA	WASTRMS	QQYHRLPLS	n.d. n.d. n.d.	n.d.	1 of 9 (4.88)
KKSQSVLYESRNKNSVA	WASTRES	QQYHRLPCS	n.d. n.d. n.d.	n.d.	5 of 9 (4.52)
KPSQSALYESRNKNSVA	WASTRES	QQYARLPLS	2.04 1.83 2.17	2.01	1 of 9 (4.27)
KESQSVLYESRNKNSVA	WDSTRES	QQYHRLPLW	n.d. n.d. n.d.	n.d.	0 of 9
KQEQSVLYEVRNKNSVA	WASTRES	QQYHRLPLS	2.76 2.80 2.44	2.67	1 of 9 (5.13)
KTHQSVLYESRNKNSVA	WASTRAS	QQYHRLPLS	0.61 0.74 0.66	0.67	3 of 9 (4.23)
KLSQSVLYESRNKMSVA	WASTRES	QQYHRPPLS	0.53 0.37 0.29	0.40	4 of 9 (3.60)
KCSQSVLYESRNKSSVA	WASTRES	QQYHRLPLS	2.08 1.71 2.10	1.96	1 of 9 (3.97)
KKSQSVLHESRNKNLVA	WASTRES	QQYHRLPLS	5.77 n.d. n.d.	5.77	2 of 9 (3.96)
KNSQSVLYESRNKNSVA	WASTRES	QQYHRHPLS	n.d. n.d. 5.18	5.18	1 of 9 (3.11)
DFSQSKLYESRNKNSVA	WASTRES	QQYHRLPLS	0.18 0.54 0.50	0.41	1 of 9 (2.99)
KWSQSVLYESRNKNSVA	WAIYRES	QQYHRLPLS	3.18 3.31 3.00	3.17	1 of 9 (4.82)
KESQSVLYESRNKNSVW	WDSTRES	QQYHRLPLS	n.d. 3.43 n.d.	3.43	5 of 9 (4.41)
KGSQSVLYMSRNKNSVA	WASCRES	QQYHRLPLS	n.d. n.d. n.d.	n.d.	0 of 9
KESQSVLYESRFKNSQA	WASTRES	QQYHRLPLS	4.83 4.21 n.d.	4.52	3 of 9 (3.79)
KESQSVLYESRNKPSVA	WASTRES	QQYHRLPLE	n.d. n.d. 3.10	3.10	0 of 9
KDSQSVLYISRNSNSVA	WASTRES	QQYHRLPLS	2.94 n.d. n.d.	2.94	0 of 9
KASQSVLYESRNKQSLA	WASTRES	QQYHRLPLS	1.56 1.55 1.68	1.59	0 of 9
KYSQSVLYESRNKNSVA	WASTQES	IQYHRLPLS	4.86 3.69 6.19	4.91	4 of 9 (4.74)
KQSQSVLYESHNKNSVA	WASTRES	QQYHRLPLS	0.87 1.04 1.04	0.99	0 of 9
KRSQSVLYESRDKNSVA	IASTRES	QQYHRLPLS	n.d. n.d. n.d.	n.d.	0 of 9
KYSQSVLYESRSKNSVA	WASTRES	QIYHRLPLS	2.09 1.98 2.59	2.22	0 of 9
KLSQSVDYESRNKNSVA	WASTRES	QQYHCLPLS	0.18 0.44 0.19	0.27	4 of 9 (4.72)
KFSMSVLYESRNKNSVA	PASTRES	QQYHRLPLS	n.d. n.d. n.d.	n.d.	0 of 9

From the list, the first 3 with no signal in any replicate:

| CDR-L1 | CDR-L2 | CDR-L3 | replicates, log10 nM | mean, log10 nM | signal with controls |
|---|---|---|---|---|---|
| KYSQSVLYESRNKNSVA | WASTAES | QVYHRLPLS | n.d. n.d. n.d. | n.d. | 0 of 9 |
| KESQSVLYESRNKNSPA | WASTRMS | QQYHRLPLS | n.d. n.d. n.d. | n.d. | 1 of 9 (4.88) |
| KKSQSVLYESRNKNSVA | WASTRES | QQYHRLPCS | n.d. n.d. n.d. | n.d. | 5 of 9 (4.52) |